Data as given in PubChem BioAssay AID1508623 (National Center for Advancing Translational Sciences (NCATS), 2021).
About 450 (0.94%) of roughly 48,000 compounds were called active. These results got no clear call from the source, so the numbers are uncertain. Calls come from the whole dose curve; as a rule, active = well fitted inhibition curve with a large enough effect; inconclusive = small, poorly fitted or top-dose-only effect; inactive = no such curve, though single readings can be large or run the other way.

Assay: Primary qHTS for Identification of Small Molecule Inhibitors of Huntingtin Promoter Activity; note: nearly all actives have a fitted effect of over 50% in size
Conditions: HEK293 HTT promoter firefly luciferase reporter (activity 0% = vehicle and -100% = no light), 24 h
Text: Assay Provider: Russell L. Margolis M.D.
Department Neurology, Johns Hopkins University School of Medicine, Baltimore, MD
Huntington's Disease (HD) is a neurodegenerative disorder caused by a CAG repeat expansion in exon 1 of huntingtin (HTT). While there are currently no disease-modifying treatments for HD, recent efforts have focused on development of nucleotide-based therapeutics to lower HTT expression. As an alternative to siRNA or oligonucleotide methods, we hypothesized that suppression of HTT expression might be accomplished by small molecules that either (1) directly decrease HTT expression by suppressing HTT promoter activity or (2) indirectly decrease HTT expression by increasing the promoter activity of HTT-AS, the gene antisense to HTT that appears to inhibit expression of HTT. […]
7; Detection; Luminescence; FLuc […]
1; High-throughput screening, measuring luminescence from a Hek293 luciferase reporter, was performed in 1,536 well white-walled tissue-culture treated plates. […]
4; Cells were then incubated for 24 hours at 37 degrees C prior to luminescence measurements.
5; In all cases, luminescence was measured using the Dual-Glo Luciferase Reporter Assay System (Promega) following the manufacturer's instructions. […]
7; Luminescence signal was obtained using the PerkinElmer ViewLux plate reader. […]
Potency is the fitted concentration of half-maximal effect.

SMILES	Potency
Cc1cc([N+](=O)[O-])cc([N+](=O)[O-])c1O	inconclusive: 39.8 µM
